Measurements as given in US20110136737A1.

Target: T1, GIP receptor (GIP RBA, RIN), P43219
T1 chain: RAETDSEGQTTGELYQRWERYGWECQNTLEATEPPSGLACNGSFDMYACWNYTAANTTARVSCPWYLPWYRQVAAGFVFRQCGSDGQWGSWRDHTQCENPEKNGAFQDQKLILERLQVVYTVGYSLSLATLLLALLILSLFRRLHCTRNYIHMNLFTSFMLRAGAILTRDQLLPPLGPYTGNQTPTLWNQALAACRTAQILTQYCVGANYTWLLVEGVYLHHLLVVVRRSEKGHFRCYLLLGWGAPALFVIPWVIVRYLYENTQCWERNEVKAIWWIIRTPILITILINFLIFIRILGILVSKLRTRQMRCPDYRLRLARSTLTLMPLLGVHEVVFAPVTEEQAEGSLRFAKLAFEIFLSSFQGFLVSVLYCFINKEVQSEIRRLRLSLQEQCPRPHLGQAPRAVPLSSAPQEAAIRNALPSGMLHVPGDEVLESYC
Test: cell-based or functional assay

B1: 0601GIP4292 (peptide)
peptide: GYAEGTFISDYSIALDKIRQQEFVNWLLAQHPSSGAPPPS
modifications: not checked
Cyclase: 3.46
